These results are taken from publication PMC2481421, “Gene expression response in target organ and whole blood varies as a function of target organ injury phenotype” (Genome Biology, 2008).

In this data set the test system is liver. The experiment in a line: Liver histopathology (H&E sections of left liver lobe, severity graded) after a single dose. Conditions: rat, single administration.

For the molecule `Clc1ccccc1Cl` [1,2-Dichlorobenzene], the “Primary site of livery injury” value is recorded as “Centrilobular”.
